Tests used:
[1] = biological target: Sodium-dependent dopamine transporter (Rattus norvegicus, UniProt P23977)
[2] = biological target: Sodium-dependent serotonin transporter (Rattus norvegicus, UniProt P31652)

The chains behind the UniProt entries cited, without tags or fusion partners.
UniProt P23977, whole entry: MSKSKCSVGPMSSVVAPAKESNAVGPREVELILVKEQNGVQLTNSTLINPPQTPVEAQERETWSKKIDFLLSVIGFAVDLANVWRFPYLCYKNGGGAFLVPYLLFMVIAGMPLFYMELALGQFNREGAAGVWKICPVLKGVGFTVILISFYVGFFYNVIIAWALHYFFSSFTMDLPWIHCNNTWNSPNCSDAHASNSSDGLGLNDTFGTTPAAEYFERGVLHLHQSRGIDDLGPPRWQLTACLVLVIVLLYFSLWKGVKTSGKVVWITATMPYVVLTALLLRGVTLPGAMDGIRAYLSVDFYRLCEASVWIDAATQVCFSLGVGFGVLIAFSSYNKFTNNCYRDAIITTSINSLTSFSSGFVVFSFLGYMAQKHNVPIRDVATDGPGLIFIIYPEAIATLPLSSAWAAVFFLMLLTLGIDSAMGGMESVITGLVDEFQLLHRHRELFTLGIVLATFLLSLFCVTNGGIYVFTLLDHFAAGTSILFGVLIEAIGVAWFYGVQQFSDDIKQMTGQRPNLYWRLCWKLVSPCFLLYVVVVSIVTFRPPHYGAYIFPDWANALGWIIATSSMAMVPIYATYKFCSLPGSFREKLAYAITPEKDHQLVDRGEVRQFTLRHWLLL
UniProt P31652, whole entry: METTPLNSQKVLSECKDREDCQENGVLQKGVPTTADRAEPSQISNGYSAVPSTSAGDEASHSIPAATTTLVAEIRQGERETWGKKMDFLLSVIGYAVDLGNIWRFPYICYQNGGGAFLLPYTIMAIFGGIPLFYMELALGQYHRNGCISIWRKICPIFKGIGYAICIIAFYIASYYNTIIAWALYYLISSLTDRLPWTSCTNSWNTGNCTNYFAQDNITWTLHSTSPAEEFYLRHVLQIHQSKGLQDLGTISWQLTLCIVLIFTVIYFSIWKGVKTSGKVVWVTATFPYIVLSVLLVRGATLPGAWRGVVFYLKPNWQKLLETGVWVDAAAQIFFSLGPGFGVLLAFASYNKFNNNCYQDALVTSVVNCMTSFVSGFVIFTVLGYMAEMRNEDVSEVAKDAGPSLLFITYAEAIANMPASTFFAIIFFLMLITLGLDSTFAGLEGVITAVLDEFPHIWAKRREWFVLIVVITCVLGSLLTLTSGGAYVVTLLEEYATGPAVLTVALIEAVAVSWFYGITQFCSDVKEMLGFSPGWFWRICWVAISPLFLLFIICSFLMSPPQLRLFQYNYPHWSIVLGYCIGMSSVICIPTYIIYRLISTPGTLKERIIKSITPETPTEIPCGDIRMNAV

Ki [1] | Ki [2] | SMILES
> 10000 nM |  | CN(C)CCCN1c2ccccc2CCc2ccccc21
 | 1700 nM | CNCCC=C1c2ccccc2CCc2ccccc21 [NORTRIPTYLINE]
